Read-outs that look alike come from different tables or passages of the source.

For orientation: EC50 means the concentration giving half of the maximal effect.

Assay [1] has as its system supercoiled pBR322 plasmid DNA. The conditions noted are these: for EC50: read-out: EC50 value, supercoiled pBR322 0.5 μg (40 μM/bp), 525 nm green light, 1.5-2 h, water; for DNA cleavage potency (in words): supercoiled pBR322, 525 nm green light.
For another assay, the system named is double-stranded DNA. Conditions: read-out: EC50 (DNA cleavage); comparison value; cited from earlier work.
The test system of assay [2] is supercoiled pBR322 plasmid DNA. Nature of the assay: Cleavage assay of diazonium in blue, red, and ambient light. The conditions noted are these: read-out: EC50 value; low-energy red light (660 nm).

As to “4-nitrile-benzene-1-diazonium tetrafluoroborate”, the EC50 in assay [1] came out at 0.557 µM.

As for “N-(3-diazobenzene) benzamide tetrafluoroborate”, the EC50 in assay [1] came to 0.469 µM. Still for that read-out and setting: under “methyl 3,5-bisdiazonium-1-benzoate tetrafluoroborate” stands 4.26 µM; under `CC(=O)Nc1ccc(C(c2ccc([N+]#N)cc2)(c2ccc([N+]#N)cc2)c2ccc([N+]#N)cc2)cc1`, 0.00564 µM; under “N-(4-diazobenzene) 4-diazobenzamide tetrafluoroborate”, 0.0741 µM. Turning to “N-(3-diazobenzene) 3-diazobenzamide tetrafluoroborate”, the EC50 in assay [1] was determined as 0.0182 µM. Same read-out and setting: the result for `N#[N+]c1ccc2cc3cccc([N+]#N)c3nc2c1` reads 0.454 µM; that for `N#[N+]c1ccc([N+](=O)[O-])cc1`, 0.371 µM; that for “di(benzene-4-diazonium)ether tetrafluoroborate”, 0.0337 µM. `F[B-](F)(F)F.F[B-](F)(F)F.N#[N+]c1ccc2cc3cccc([N+]#N)c3nc2c1`: the “DNA cleavage potency (in words)” value in assay [1] is “only modest potency”. For calicheamicin γ1, in the assay on double-stranded DNA, the EC50 was 0.007 to 0.01 µM. On to “N-(4-diazobenzene) 3-diazobenzamide tetrafluoroborate”, for which the EC50 in assay [1] is 0.0263 µM. For the compound `F[B-](F)(F)F.F[B-](F)(F)F.N#[N+]c1ccc([N+]#N)cc1`, in assay [1], the “DNA cleavage potency (in words)” value is reported as “improved potency”.

With “methyl 4-benzoate-1-diazonium tetrafluoroborate”, the EC50 in assay [1] was determined as 0.571 µM. As to “naphthaene-1-diazonium tetrafluoroborate”, in assay [1], the EC50 stood at 1.08 µM. On the same count and under the same terms, the result for “di(benzene-3-diazonium)ether tetrafluoroborate” reads 0.0479 µM. As for `CC(=O)Nc1ccc(C(c2ccc([N+]#N)cc2)(c2ccc([N+]#N)cc2)c2ccc([N+]#N)cc2)cc1.F[B-](F)(F)F.F[B-](F)(F)F.F[B-](F)(F)F`, the “DNA cleavage potency (in words)” value in assay [1] was “excellent potency”.

Consider “N,N′-di(3-benzenediazonium)urea tetrafluoroborate”, for which the half-maximal effective concentration (EC50) in assay [1] came out at 0.0824 µM.

For the compound “N-(3-diazobenzene)-N-methyl-3-diazobenzamide tetrafluoroborate”, in assay [1], the concentration giving a half-maximal response (EC50) stood at 0.0461 µM and the “DNA cleavage potency (in words)” value was “good potency”.

Turning to “N-(3-diazobenzene) 4-diazobenzamide tetrafluoroborate”, the values for the EC50 in assay [2] and in assay [1] were 0.095 µM and 0.0229 µM, respectively.

Regarding `N#[N+]c1ccc([N+]#N)cc1`, the EC50 in assay [1] stood at 0.792 µM. Still for that read-out and setting: the result for “(3-diazophenyl) 3-diazobenzoate tetrafluoroborate” reads 0.0381 µM.
